This note sets out measurements from BindingDB's records for doi:10.1021/jm040794i (2005).

Amino acid sequences for entries named in this document (tags omitted). A change or cut given only in a name is not applied to a line headed by its entry.
UniProt P32745: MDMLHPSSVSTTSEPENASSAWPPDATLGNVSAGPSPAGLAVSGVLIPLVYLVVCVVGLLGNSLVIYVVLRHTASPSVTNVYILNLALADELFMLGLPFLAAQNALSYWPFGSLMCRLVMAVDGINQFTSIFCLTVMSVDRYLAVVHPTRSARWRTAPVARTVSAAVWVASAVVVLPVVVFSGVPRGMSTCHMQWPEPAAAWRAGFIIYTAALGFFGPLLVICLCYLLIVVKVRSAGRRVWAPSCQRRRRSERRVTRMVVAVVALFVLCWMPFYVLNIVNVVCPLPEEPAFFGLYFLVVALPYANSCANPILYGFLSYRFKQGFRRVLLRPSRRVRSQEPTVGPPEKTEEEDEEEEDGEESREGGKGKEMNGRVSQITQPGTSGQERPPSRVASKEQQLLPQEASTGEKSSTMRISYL
UniProt P35346: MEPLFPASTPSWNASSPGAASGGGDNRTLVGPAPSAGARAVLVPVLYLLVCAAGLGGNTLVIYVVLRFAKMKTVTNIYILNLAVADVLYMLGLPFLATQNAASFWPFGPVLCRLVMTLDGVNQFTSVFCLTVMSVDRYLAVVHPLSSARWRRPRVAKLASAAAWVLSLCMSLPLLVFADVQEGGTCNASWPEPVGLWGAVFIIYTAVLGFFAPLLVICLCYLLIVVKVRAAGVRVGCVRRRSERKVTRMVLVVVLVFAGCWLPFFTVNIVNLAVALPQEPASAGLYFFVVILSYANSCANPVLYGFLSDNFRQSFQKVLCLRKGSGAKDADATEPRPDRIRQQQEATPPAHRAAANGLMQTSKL

As usually defined, the IC50 is the midpoint of a concentration-inhibition curve. A high value points to weaker potency in that assay.

Assay [1] deals with Somatostatin receptor type 3 (Homo sapiens, UniProt P32745). Kind of assay: In vitro inhibition of [125I][Leu8,D-Trp22,Tyr25] somatostatin 28 binding to human somatostatin receptor type 3 expressed in CCL39 cells; (n=7).
Assay [2] deals with T1, Somatostatin receptor type 5 (Homo sapiens, UniProt P35346). In words: In vitro inhibition of [125I][Leu8,D-Trp22,Tyr25] somatostatin 28 binding to human somatostatin receptor type 5 expressed in CHO-K1 cells; (n=6).
Assay [3] concerns the target T1, Somatostatin receptor type 5. Kind of assay: In vitro inhibition of [125I][Leu8,D-Trp22,Tyr25] somatostatin 28 binding to human somatostatin receptor type 5 expressed in CHO-K1 cells; (n=3).

As to `C[C@@H](O)[C@@H]1NC(=O)[C@H](CCCCN)NC(=O)[C@@H](Cc2c[nH]c3ccccc23)NC(=O)[C@H](Cc2ccc(O)cc2)NC(=O)[C@@H](NC(=O)[C@@H](Cc2ccccc2)NC(=O)CN2CCN(CC(=O)O)CCN(CC(=O)O)CCN(CC(=O)O)CC2)CSSC[C@@H](C(=O)N[C@H](CO)[C@@H](C)O)NC1=O`, the values for the half-maximal inhibitory concentration (IC50) in assay [1], in assay [2] and in assay [3] were 613 nM, 73 nM and 114 nM, respectively.
